# Reported melting point values for industrial, environmental and drug-like chemicals

Values as listed in the OPERA 2.9 repository of K. Mansouri.

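These are experimental values that the OPERA curators gathered from public databases to train and test their QSAR models. One number stands for a compound and property, with no spread given. How each value was measured is not recorded, so precision varies. The measured form (salt, isomer or mixture) is not always the one drawn. Some upstream entries may be estimates or bounds without being marked so.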

Melting points are in °C.

Listed for COc1ccc(CNC(=O)C2CCNCC2)cc1: melting point 119 °C.
Listed for Cc1ccc2cc(CCl)c(Cl)nc2c1: melting point 133 °C.
Listed for C[n+]1ccn(CCC(F)(F)C(F)(F)C(F)(F)C(F)(F)C(F)(F)C(F)(F)F)c1.F[P-](F)(F)(F)(F)F: melting point 79.5 °C.
Listed for O=c1nc[nH]c2cc(F)ccc12: melting point 261 °C.
Listed for COc1ccc(C(=O)O)cn1: melting point 173 °C.
Listed for NNC(=O)C1CC1: melting point 93 °C.
Listed for Nc1ccccc1C(=O)N1CCOCC1: melting point 75 °C.
Listed for O=[N+]([O-])c1ccc(Cl)cc1I: melting point 63 °C.
Listed for COC(=O)c1nc(Cl)ccc1Cl: melting point 54 °C.
Listed for CCCNS(=O)(=O)c1cccc(C(=O)O)c1: melting point 200 °C.
Listed for NS(=O)(=O)c1ccc2c(c1)OCCO2: melting point 198 °C.
Listed for Nc1ccccc1C(=O)N1CCCC1: melting point 87 °C.
Listed for CCCCC(CC)CNc1ccc2ccccc2c1N=Nc1ccc(N=Nc2ccccc2C)cc1C (stereo unspecified): melting point -13 °C.
Listed for CC(C)(C)NS(=O)(=O)c1cc(C(=O)O)ccc1Cl: melting point 213 °C.
Listed for O=C(O)CCC1NC(=O)NC1=O (stereo unspecified): melting point 170 °C.
Listed for O=C(F)c1cc(Cl)c(F)c(Cl)c1F: melting point -14 °C.
Listed for Cn1c(=O)n(CC(=O)O)c2ccccc21: melting point 203 °C.
Listed for O=C(O)c1cn(-c2ccccc2)nc1-c1cccnc1: melting point 239 °C.
Listed for O=C(N=NC(=O)OCCCC(F)(F)C(F)(F)C(F)(F)C(F)(F)C(F)(F)C(F)(F)F)OCCCC(F)(F)C(F)(F)C(F)(F)C(F)(F)C(F)(F)C(F)(F)F: melting point 58 °C.
Listed for CC(C)NC(=O)c1ccc(Cl)c(N)c1: melting point 132 °C.
Listed for Nc1ccc(S(N)(=O)=O)cc1[N+](=O)[O-]: melting point 207 °C.
Listed for N#CCC(=O)NC1CC1: melting point 88.5 °C.
Listed for NC(=O)c1c(N)sc2c1CCCCC2: melting point 197 °C.
Listed for S=c1[nH]c2ccccc2n1-c1ccccc1: melting point 142 °C.
Listed for O=C1NC(=O)C(Cc2ccccc2)(c2ccccc2)N1 (stereo unspecified): melting point 210 °C.
Listed for O=C(O)CCC(=O)N1CCOCC1: melting point 63 °C.
Listed for Cc1ccc(Oc2ccc(NC(=O)CCl)cc2)cc1: melting point 156 °C.
Listed for Nc1nnc(-c2ccco2)s1: melting point 251 °C.
Listed for O=C([O-])c1cc(S(=O)(=O)[O-])ccc1/N=N/[C-](/N=N/c1cc(S(=O)(=O)[O-])cc(Nc2nc(Cl)nc(Nc3cc(S(=O)(=O)[O-])c(Nc4nc(Cl)nc(Nc5cccc(S(=O)(=O)[O-])c5)n4)cc3S(=O)(=O)[O-])n2)c1[O-])c1ccccc1.[Cu+2].[H+].[Na+].[Na+].[Na+].[Na+].[Na+]: melting point 170 °C.
Listed for COc1ccc(OC)c2[nH]c(C(=O)O)cc12: melting point 202 °C.
Listed for O=C(Nc1ccccc1)Nc1ccc(C(=O)O)cc1: melting point 261 °C.
Listed for CCCCCCCCCCCCOc1ccc(C=O)cc1: melting point 27.5 °C.
Listed for O=C(O)CC(Br)C(=O)c1ccc(Cl)cc1 (stereo unspecified): melting point 115 °C.
Listed for Cc1ccc(C)c(C(=O)CCC(=O)O)c1: melting point 82 °C.
Listed for CC(=O)c1ccc2c(c1)CCC(=O)N2: melting point 163 °C.
Listed for N#Cc1cc([N+](=O)[O-])c[nH]c1=O: melting point 260 °C.
Listed for CC(C)NS(=O)(=O)c1ccc(N)cc1: melting point 113 °C.
Listed for Nc1nc2cc(Cl)ccc2s1: melting point 198 °C.
Listed for O=C(O)c1ccc(N2CCCC2)c([N+](=O)[O-])c1: melting point 260 °C.
Listed for Cc1nc2sc3c(c2c(=O)n1N)CCCCC3: melting point 200 °C.
Listed for CC(Cl)C(=O)c1ccc(C(C)(C)C)cc1 (stereo unspecified): melting point 19 °C.

Again, the 4 entries with the lowest melting point:

{"smiles": "O=C(F)c1cc(Cl)c(F)c(Cl)c1F", "melting point (°C)": "-14"}
{"smiles": "CCCCC(CC)CNc1ccc2ccccc2c1N=Nc1ccc(N=Nc2ccccc2C)cc1C", "stereo": "stereo unspecified", "melting point (°C)": "-13"}
{"smiles": "CC(Cl)C(=O)c1ccc(C(C)(C)C)cc1", "stereo": "stereo unspecified", "melting point (°C)": "19"}
{"smiles": "CCCCCCCCCCCCOc1ccc(C=O)cc1", "melting point (°C)": "27.5"}